We go through 21 compounds from US10130633B2, “Compounds” (BAYER PHARMA AKTIENGESELLSCHAFT, priority 2013, dated 2018).

Test [1] has as its system HCT116 FOP control reporter cell line. Nature of the test: HCT116 FOPFlash control reporter assay (FOP control vector, non-functional TCF elements). In kind it is cell-based. The note with it: HCT116 FOP control reporter cells, 36 hours incubation, luciferase expression. The text has this: In a parallel approach, HCT116 cells were cotransfected with the FOP control vector and pcDNA3. The FOP vector is identical to the TOP construct, but it contains instead of functional TCF elements a randomized, non-functional sequence. For this transfection a stable transfected cell line was generated as well.

In another test the test system is wildtype Wnt pathway. In words: HEK293 TOP reporter assay, wildtype Wnt pathway stimulated with Wnt-3a. Particulars: HEK293 TOP cells, EC50 concentration of recombinant Wnt-3a, 16 hours; read-out: HEK TOP OncoFlash IC50. In kind it is cell-based, human. As to the method:
(§1) Measurement of luciferase expression was done as described for the constitutive active Wnt assay.
In order to discover and characterize small molecules which inhibit the wildtype Wnt pathway, a cellular reporter assay was employed. […] Stable transfectants were generated by selection with 300 μg/ml Hygromycin.

Test [2] concerns constitutive active colorectal cancer cell (CRC) Wnt pathway. Nature of the test: HCT116 TOPFlash cellular reporter assay (Super TopFlash luciferase), constitutive active Wnt pathway. The note with it: HCT116 TOP reporter cells, 36 hours incubation, luciferase expression. In kind it is cell-based. The text has this: In order to discover and characterize small molecules which inhibit the constitutive active colorectal cancer cell (CRC) Wnt pathway, a cellular reporter assay was employed. The corresponding assay cell was generated by transfection of the colorectal cancer cell line HCT116 (ATCC, #CCL-247) with the Super TopFlash vector (Morin, Science 275, 1997, 1787-1790; Molenaar et al., Cell 86 (3), 1996, 391-399). […] Stable transfectants were generated by cotransfection with pcDNA3 and selection of stable transfected cells with 1 mg/ml G418.

For test [3], the system named is HEK293 FOP control reporter cell line. Nature of the test: HEK293 FOP control reporter assay. In kind it is cell-based, human. The note with it: read-out: HEK FOP IC50. As to the method:
as §1
In a parallel approach, HEK293 cells were cotransfected with the FOP control vector and pcDNA3. The FOP vector is identical to the TOP construct, but it contains instead of functional TCF elements a randomized, non-functional sequence. For this transfection a stable transfected cell line was generated as well, based on selection with Geneticin (1 mg/ml).
(A reporter such as luciferase makes a cellular process visible.)

Where a name gives a salt, the structure may show the parent alone. Read-outs that look alike come from different tables or passages of the source.

One may read the IC50 as the concentration needed to halve the response being measured. `C[C@@H](C(=O)Nc1cc(C(=O)Nc2ccc(-c3ccccc3F)nc2)ccc1OC(F)(F)F)N1CCOCC1` (single isomer, unassigned) [Example 9, N-[6-(2-fluorophenyl)pyridin-3-yl]-3-{[(2S)-2-(morpholin-4-yl)propanoyl]amino}-4-(trifluoromethoxy)benzamide or N-[6-(2-fluorophenyl)pyridin-3-yl]-3-{[(2R)-2-(morpholin-4-yl)propanoyl]amino}-4-(trifluoromethoxy)benzamide]: the IC50 in test [1] was 20200 nM; with wildtype Wnt pathway, 9 nM; in test [2], 14.2 nM.

In the case of `C[C@@H](C(=O)Nc1cc(C(=O)Nc2ccc(-c3ccccc3F)nc2)ccc1OC(F)(F)F)N1CCN(C)CC1` (single isomer, unassigned) [Example 65, N-[6-(2-fluorophenyl)pyridin-3-yl]-3-{[(2S)-2-(4-methylpiperazin-1-yl)propanoyl]amino}-4-(trifluoromethoxy)benzamide or N-[6-(2-fluorophenyl)pyridin-3-yl]-3-{[(2R)-2-(4-methylpiperazin-1-yl)propanoyl]amino}-4-(trifluoromethoxy)benzamide], the figures for the concentration for half-maximal inhibition (IC50) (in the test on wildtype Wnt pathway; in test [2]) were 150 nM and 5.2 nM, respectively.

Turning to `C[C@@H](C(=O)Nc1cc(C(=O)Nc2ccc(-c3ccc(N)cc3)nc2)ccc1OC(F)(F)F)N1CCOCC1` (single isomer, unassigned) [Example 118, N-[6-(4-aminophenyl)pyridin-3-yl]-3-{[(2R)-2-(morpholin-4-yl)propanoyl]amino}-4-(trifluoromethoxy)benzamide or N-[6-(4-aminophenyl)pyridin-3-yl]-3-{[(2S)-2-(morpholin-4-yl)propanoyl]amino}-4-(trifluoromethoxy)benzamide], the IC50 in test [3] (HEK293 FOP control cells, EC50 concentration of recombinant Wnt-3a, 16 hours) was found to be 16000 nM; in test [2] it was 12.6 nM.

With `CC(C(=O)Nc1cc(C(=O)Nc2ccc(-c3ccccc3)nc2)ccc1OC(F)(F)F)N1CCOCC1` (stereo not shown) [Example 10, 3-{[2-(morpholin-4-yl)propanoyl]amino}-N-(6-phenylpyridin-3-yl)-4-(trifluoromethoxy)benzamide], the IC50 in the test with wildtype Wnt pathway amounted to 92 nM; in test [2] it was 11.2 nM.

Regarding `O=C(CN1CCOCC1)Nc1cc(NC(=O)c2ccc(-c3ccccc3)s2)ccc1Cl` [Example 21, N-{4-chloro-3-[(morpholin-4-ylacetyl)amino]phenyl}-5-phenylthiophene-2-carboxamide], the IC50 in test [1] (Homo sapiens, HCT-116, 36 h) came out at 9200 nM; in test [3] (Homo sapiens, HEK293, 16 h) it was 5800 nM; in the test with wildtype Wnt pathway, 140 nM.

For `O=C(CN1CCOCC1)Nc1cc(NC(=O)c2ccc(-c3cccc(F)c3F)nc2)ccc1OC(F)(F)F` [Example 26, 6-(2,3-difluorophenyl)-N-{3-[(morpholin-4-ylacetyl)amino]-4-(trifluoromethoxy)phenyl}nicotinamide], the half-maximal inhibitory concentration (IC50) in test [1] (Homo sapiens, HCT-116, 36 h) was at least 50000 nM; in the test with wildtype Wnt pathway, 350 nM; in test [2] (Homo sapiens, HCT-116, 36 h) it was 118 nM.

On to `COc1ccc(NC(=O)c2ccc(-c3cccc(F)c3)nc2)cc1NC(=O)CN1CCOCC1` [Example 32, 6-(3-fluorophenyl)-N-{4-methoxy-3-[(morpholin-4-ylacetyl)amino]phenyl}nicotinamide], for which the IC50 was at least 50000 nM in test [1] (Homo sapiens, HCT-116, 36 h); 260 nM with wildtype Wnt pathway; 925 nM in test [2] (Homo sapiens, HCT-116, 36 h).

For `O=C(Nc1nnc(-c2ccccc2)s1)c1ccc(OC(F)(F)F)c(NC(=O)C2(N3CCOCC3)CC2)c1` [Example 50, 3-({[1-(morpholin-4-yl)cyclopropyl]carbonyl}amino)-N-(5-phenyl-1,3,4-thiadiazol-2-yl)-4-(trifluoromethoxy)benzamide], the IC50 in test [1] (Homo sapiens, HCT-116, 36 h) is at least 50000 nM; in the test with wildtype Wnt pathway, 97 nM; in test [2] (Homo sapiens, HCT-116, 36 h) it was 46 nM.

Turning to `CC(C(=O)Nc1cc(C(=O)Nc2nnc(-c3ccccc3)s2)ccc1OC(F)(F)F)N1CCOCC1` (stereo not shown) [Example 57, 3-{[2-(morpholin-4-yl)propanoyl]amino}-N-(5-phenyl-1,3,4-thiadiazol-2-yl)-4-(trifluoromethoxy)benzamide], the IC50 in the test with wildtype Wnt pathway is 500 nM; in test [2], 124 nM.

On to `O=C(Nc1ccc(OC(F)(F)F)c(NC(=O)C2(N3CCOCC3)CC2)c1)c1ccc(-c2ccccc2)nc1` [Example 61, N-[3-({[1-(morpholin-4-yl)cyclopropyl]carbonyl}amino)-4-(trifluoromethoxy)phenyl]-6-phenylnicotinamide], for which the IC50 in test [1] (Homo sapiens, HCT-116, 36 h) was at least 50000 nM; in the test with wildtype Wnt pathway it was 120 nM; in test [2] (Homo sapiens, HCT-116, 36 h), 26.5 nM.

Turning to `O=C(CN1CCN(C2CC2)CC1)Nc1cc(C(=O)Nc2ccc(-c3ccccc3F)nc2)ccc1OC(F)(F)F` [Example 63, 3-{[(4-cyclopropylpiperazin-1-yl)acetyl]amino}-N-[6-(2-fluorophenyl)pyridin-3-yl]-4-(trifluoromethoxy)benzamide], the 50% inhibitory concentration (IC50) in test [1] (Homo sapiens, HCT-116, 36 h) is at least 50000 nM; in the test on wildtype Wnt pathway, 140 nM; in test [2] (Homo sapiens, HCT-116, 36 h), 50.8 nM.

In the case of `O=C(Nc1ccc(-c2ccccc2F)nc1)c1ccc(OC(F)(F)F)c(NC(=O)C2(N3CCN(C4CC4)CC3)CC2)c1` [Example 67, 3-({[1-(4-cyclopropylpiperazin-1-yl)cyclopropyl]carbonyl}amino)-N-[6-(2-fluorophenyl)pyridin-3-yl]-4-(trifluoromethoxy)benzamide], the concentration for half-maximal inhibition (IC50) is at least 50000 nM in test [1] (Homo sapiens, HCT-116, 36 h); 13 nM in the test with wildtype Wnt pathway; 29.6 nM in test [2] (Homo sapiens, HCT-116, 36 h).

For `O=C(Nc1ccc(-c2cc(F)cc(F)c2)nc1)c1ccc(OC(F)(F)F)c(NC(=O)C2(N3CCOCC3)CC2)c1` [Example 71, N-[6-(3,5-difluorophenyl)pyridin-3-yl]-3-({[1-(morpholin-4-yl)cyclopropyl]carbonyl}amino)-4-(trifluoromethoxy)benzamide], the IC50 is 45000 nM in test [1] (Homo sapiens, HCT-116, 36 h); 160 nM in the test on wildtype Wnt pathway; 29.2 nM in test [2] (Homo sapiens, HCT-116, 36 h).

`Cc1ccc(C(=O)Nc2ccc(-c3ccccc3F)nc2)cc1NC(=O)C1(N2CCOCC2)CC1` [Example 76, N-[6-(2-fluorophenyl)pyridin-3-yl]-4-methyl-3-({[1-(morpholin-4-yl)cyclopropyl]carbonyl}amino)benzamide]: the IC50 was at least 50000 nM in test [1] (Homo sapiens, HCT-116, 36 h); 54 nM in the test on wildtype Wnt pathway; 31.4 nM in test [2] (Homo sapiens, HCT-116, 36 h).

Take `CC(C(=O)Nc1cc(C(=O)Nc2ccc(-c3ccc(N)cc3)nc2)ccc1OC(F)(F)F)N1CCOCC1` (stereo not shown) [Example 111, N-[6-(4-aminophenyl)pyridin-3-yl]-3-{[2-(morpholin-4-yl)propanoyl]amino}-4-(trifluoromethoxy)benzamide]: the half-inhibitory concentration (IC50) was at least 50000 nM in test [1] (Homo sapiens, HCT-116, 36 h) and 32.2 nM in test [2] (Homo sapiens, HCT-116, 36 h).

`CC(=O)Nc1ccc(-c2ccc(NC(=O)c3ccc(OC(F)(F)F)c(NC(=O)C(C)N4CCOCC4)c3)cn2)cc1` (stereo not shown) [Example 113, N-[6-(4-acetamidophenyl)pyridin-3-yl]-3-{[2-(morpholin-4-yl)propanoyl]amino}-4-(trifluoromethoxy)benzamide]: the IC50 is at least 50000 nM in test [1] (Homo sapiens, HCT-116, 36 h); 890 nM in the test with wildtype Wnt pathway; 23 nM in test [2] (Homo sapiens, HCT-116, 36 h).

On to `O=C(CN1CCOCC1)Nc1cc(NC(=O)c2cc(-c3ccccc3)[nH]n2)ccc1OC(F)(F)F` [Example 124, N-{3-[(morpholin-4-ylacetyl)amino]-4-(trifluoromethoxy)phenyl}-5-phenyl-1H-pyrazole-3-carboxamide], for which the IC50 stood at 13000 nM in test [3] (Homo sapiens, HEK293, 16 h) and 84 nM in the test with wildtype Wnt pathway.

With `CN1CCN(CC(=O)Nc2cc(C(=O)Nc3nnc(-c4cccc(Cl)c4)s3)ccc2OC(F)(F)F)CC1` [Example 151, N-[5-(3-chlorophenyl)-1,3,4-thiadiazol-2-yl]-3-{[(4-methylpiperazin-1-yl)acetyl]amino}-4-(trifluoromethoxy)benzamide], the 50% inhibitory concentration (IC50) was at least 50000 nM in test [1] (Homo sapiens, HCT-116, 36 h) and 250 nM with wildtype Wnt pathway.

Turning to `CC(C(=O)Nc1cc(C(=O)Nc2ccc(-c3ccccc3)nc2)ccc1OC(F)(F)F)N1CCOCC1` (stereo not shown) [Example 208, 3-{[2-(morpholin-4-yl)propanoyl]amino}-N-(6-phenylpyridin-3-yl)-4-(trifluoromethoxy)benzamide], in test [2], the half-maximal inhibitory concentration (IC50) stood at 10.4 nM.

For `CC(C(=O)Nc1cc(C(=O)Nc2nnc(-c3ccccc3)s2)ccc1OC(F)(F)F)N1CCN(C)CC1` (stereo not shown) [Example 260, 3-{[2-(4-methylpiperazin-1-yl)propanoyl]amino}-N-(5-phenyl-1,3,4-thiadiazol-2-yl)-4-(trifluoromethoxy)benzamide trifluoroacetate (1:1)], the IC50 was 9800 nM in test [1] and 123 nM in test [2].

Take `CC(C(=O)Nc1cc(C(=O)Nc2nnc(-c3ccccc3)s2)ccc1OC(F)(F)F)N1CCN(C)CC1` (stereo not shown) [Example 273, 3-{[2-(4-methylpiperazin-1-yl)propanoyl]amino}-N-(5-phenyl-1,3,4-thiadiazol-2-yl)-4-(trifluoromethoxy)benzamide trifluoroacetate (1:1)]: the half-maximal inhibitory concentration (IC50) in test [1] amounted to 27000 nM; in test [2], 930 nM.
